# Measured values as given in article PMC10009755, “Discovery and Characterization of BAY-805, a Potent and Selective Inhibitor of Ubiquitin-Specific Protease USP21” (Journal of Medicinal Chemistry, 2023).
# Chains of the proteins cited; added tags and fusions are not shown. Lines headed by an entry give the natural chain unless they say otherwise; changes in a name come on top. Residues count along the entry.
# UniProt O94804: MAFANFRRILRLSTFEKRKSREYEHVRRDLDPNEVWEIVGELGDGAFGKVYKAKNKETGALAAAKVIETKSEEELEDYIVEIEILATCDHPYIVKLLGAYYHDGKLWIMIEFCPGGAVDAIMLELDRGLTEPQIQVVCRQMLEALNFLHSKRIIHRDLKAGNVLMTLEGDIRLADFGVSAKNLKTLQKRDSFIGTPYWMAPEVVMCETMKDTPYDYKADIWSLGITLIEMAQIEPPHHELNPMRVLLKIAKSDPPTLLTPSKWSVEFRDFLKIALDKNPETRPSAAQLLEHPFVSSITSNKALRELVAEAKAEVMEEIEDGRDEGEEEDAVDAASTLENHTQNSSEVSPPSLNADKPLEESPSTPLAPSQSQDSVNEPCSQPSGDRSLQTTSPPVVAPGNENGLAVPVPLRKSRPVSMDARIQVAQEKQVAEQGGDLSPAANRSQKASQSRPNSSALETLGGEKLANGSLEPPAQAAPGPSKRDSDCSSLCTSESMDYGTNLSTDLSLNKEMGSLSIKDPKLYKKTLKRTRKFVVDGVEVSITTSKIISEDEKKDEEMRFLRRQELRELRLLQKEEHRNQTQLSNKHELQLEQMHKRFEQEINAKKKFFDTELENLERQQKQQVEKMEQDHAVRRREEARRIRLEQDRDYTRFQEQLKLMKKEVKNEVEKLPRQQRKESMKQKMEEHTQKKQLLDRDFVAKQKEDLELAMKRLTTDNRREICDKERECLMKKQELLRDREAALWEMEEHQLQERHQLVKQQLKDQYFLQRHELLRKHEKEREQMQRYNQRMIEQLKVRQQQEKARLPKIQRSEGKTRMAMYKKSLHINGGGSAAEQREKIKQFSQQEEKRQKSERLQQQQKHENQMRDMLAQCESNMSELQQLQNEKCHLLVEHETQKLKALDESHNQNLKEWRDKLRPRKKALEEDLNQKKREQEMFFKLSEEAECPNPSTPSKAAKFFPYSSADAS
# UniProt P29376, 17-864: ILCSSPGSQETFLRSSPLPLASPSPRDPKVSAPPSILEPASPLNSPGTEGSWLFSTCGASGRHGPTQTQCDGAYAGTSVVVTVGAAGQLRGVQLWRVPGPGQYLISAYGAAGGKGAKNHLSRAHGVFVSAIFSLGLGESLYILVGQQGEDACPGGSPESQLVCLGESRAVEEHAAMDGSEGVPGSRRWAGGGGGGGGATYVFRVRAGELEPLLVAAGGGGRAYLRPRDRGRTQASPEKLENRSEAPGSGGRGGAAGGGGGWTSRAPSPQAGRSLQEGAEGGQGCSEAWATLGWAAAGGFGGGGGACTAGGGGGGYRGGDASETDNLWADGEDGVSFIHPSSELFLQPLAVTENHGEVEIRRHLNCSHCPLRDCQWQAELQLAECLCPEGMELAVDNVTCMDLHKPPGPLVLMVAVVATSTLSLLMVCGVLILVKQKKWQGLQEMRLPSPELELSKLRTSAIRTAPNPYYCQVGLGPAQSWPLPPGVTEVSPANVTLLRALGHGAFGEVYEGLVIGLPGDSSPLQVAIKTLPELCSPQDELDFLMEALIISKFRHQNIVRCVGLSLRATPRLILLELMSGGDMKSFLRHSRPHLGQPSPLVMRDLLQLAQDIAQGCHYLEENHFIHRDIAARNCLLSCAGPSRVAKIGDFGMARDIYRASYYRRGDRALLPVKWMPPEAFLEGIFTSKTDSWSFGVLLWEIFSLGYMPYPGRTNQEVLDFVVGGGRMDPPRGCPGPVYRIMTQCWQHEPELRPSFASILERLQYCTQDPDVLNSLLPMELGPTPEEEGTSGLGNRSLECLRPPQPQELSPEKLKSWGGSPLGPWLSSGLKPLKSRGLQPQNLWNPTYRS
# UniProt Q5VT25: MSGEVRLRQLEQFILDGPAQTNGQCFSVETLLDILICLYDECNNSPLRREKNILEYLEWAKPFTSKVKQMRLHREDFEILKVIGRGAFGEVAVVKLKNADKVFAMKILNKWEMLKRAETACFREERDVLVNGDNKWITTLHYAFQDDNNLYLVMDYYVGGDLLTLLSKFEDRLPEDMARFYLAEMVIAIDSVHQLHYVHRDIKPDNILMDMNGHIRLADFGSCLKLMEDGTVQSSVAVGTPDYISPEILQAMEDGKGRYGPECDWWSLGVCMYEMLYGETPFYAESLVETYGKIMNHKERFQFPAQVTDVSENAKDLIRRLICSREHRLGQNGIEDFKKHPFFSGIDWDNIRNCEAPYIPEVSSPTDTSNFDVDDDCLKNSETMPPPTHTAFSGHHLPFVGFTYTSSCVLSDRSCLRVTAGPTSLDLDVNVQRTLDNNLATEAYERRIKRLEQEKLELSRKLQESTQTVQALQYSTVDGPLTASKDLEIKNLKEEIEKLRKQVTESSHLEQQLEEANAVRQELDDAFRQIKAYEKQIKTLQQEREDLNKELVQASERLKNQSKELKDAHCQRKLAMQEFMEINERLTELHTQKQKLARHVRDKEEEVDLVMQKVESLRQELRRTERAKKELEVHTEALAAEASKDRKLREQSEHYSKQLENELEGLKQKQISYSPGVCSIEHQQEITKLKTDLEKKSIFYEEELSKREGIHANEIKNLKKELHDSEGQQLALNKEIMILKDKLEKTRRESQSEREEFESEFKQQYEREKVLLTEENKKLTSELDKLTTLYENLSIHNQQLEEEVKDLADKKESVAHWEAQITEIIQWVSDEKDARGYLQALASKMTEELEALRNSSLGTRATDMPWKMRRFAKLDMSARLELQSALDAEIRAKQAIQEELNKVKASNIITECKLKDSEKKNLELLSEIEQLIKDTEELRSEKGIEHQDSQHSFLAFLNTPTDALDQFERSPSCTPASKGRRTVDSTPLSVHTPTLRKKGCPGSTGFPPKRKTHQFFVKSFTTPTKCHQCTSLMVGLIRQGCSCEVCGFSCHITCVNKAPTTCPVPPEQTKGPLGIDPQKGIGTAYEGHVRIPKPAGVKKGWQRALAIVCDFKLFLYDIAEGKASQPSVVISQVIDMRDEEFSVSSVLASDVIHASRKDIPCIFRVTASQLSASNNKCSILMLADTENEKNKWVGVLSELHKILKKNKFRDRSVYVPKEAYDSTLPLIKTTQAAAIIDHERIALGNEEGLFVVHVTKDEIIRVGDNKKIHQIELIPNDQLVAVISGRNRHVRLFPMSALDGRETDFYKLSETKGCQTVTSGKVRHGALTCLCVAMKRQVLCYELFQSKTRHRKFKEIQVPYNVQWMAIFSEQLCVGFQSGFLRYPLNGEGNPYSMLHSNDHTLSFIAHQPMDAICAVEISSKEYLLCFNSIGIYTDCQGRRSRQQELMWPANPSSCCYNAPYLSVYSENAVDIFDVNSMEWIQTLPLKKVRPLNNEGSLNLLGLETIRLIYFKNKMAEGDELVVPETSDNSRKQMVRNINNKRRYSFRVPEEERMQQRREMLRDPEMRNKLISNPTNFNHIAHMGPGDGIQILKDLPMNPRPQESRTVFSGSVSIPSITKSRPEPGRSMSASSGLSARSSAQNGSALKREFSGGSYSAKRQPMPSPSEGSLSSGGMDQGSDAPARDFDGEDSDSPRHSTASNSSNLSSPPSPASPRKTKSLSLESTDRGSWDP
# UniProt Q70CQ3, 57-517: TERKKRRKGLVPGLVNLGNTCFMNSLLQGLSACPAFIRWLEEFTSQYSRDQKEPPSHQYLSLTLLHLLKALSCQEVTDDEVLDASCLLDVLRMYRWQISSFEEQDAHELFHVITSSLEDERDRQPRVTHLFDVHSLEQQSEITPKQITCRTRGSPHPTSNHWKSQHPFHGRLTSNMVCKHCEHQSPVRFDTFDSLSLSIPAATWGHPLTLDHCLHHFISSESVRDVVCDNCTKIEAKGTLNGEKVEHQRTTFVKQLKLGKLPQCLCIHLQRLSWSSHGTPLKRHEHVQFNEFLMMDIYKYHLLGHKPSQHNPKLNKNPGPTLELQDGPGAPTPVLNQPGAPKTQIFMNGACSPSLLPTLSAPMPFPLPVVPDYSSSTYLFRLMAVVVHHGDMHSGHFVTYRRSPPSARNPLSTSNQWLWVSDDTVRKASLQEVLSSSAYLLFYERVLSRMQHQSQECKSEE
# UniProt P27037, 20-513: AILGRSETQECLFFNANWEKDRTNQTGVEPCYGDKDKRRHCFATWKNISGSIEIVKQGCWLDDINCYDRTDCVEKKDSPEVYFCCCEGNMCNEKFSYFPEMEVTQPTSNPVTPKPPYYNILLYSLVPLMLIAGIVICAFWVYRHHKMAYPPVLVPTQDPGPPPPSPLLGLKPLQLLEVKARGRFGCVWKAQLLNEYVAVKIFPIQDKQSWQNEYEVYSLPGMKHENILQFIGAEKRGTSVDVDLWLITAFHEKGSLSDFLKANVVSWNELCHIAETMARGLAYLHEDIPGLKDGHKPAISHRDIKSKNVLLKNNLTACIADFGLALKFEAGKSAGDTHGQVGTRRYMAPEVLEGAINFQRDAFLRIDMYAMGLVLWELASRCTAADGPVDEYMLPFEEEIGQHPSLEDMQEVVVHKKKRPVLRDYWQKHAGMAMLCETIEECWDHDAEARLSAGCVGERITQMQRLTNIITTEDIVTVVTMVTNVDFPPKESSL
# UniProt Q16584: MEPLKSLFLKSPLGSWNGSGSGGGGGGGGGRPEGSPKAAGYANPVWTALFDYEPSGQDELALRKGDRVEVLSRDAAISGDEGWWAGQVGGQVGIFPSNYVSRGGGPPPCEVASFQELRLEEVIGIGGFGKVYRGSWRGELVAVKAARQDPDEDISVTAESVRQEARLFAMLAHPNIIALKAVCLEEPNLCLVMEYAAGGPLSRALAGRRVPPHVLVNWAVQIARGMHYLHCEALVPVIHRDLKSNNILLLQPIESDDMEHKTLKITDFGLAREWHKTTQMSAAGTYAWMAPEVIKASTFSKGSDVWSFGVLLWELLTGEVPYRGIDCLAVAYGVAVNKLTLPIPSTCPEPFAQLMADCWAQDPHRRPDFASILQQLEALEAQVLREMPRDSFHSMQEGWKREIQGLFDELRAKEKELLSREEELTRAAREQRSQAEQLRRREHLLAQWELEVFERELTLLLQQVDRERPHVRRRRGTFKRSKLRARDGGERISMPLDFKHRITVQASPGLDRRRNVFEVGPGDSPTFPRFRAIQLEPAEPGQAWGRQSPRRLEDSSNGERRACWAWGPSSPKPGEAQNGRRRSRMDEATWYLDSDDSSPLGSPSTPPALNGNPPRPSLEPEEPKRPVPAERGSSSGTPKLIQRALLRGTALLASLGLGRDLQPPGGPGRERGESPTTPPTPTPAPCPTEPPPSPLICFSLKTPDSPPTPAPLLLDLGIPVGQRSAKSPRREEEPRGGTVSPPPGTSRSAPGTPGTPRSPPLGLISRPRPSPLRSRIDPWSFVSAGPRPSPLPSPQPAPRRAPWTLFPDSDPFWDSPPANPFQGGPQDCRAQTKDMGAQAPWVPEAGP
# UniProt O43353, whole entry: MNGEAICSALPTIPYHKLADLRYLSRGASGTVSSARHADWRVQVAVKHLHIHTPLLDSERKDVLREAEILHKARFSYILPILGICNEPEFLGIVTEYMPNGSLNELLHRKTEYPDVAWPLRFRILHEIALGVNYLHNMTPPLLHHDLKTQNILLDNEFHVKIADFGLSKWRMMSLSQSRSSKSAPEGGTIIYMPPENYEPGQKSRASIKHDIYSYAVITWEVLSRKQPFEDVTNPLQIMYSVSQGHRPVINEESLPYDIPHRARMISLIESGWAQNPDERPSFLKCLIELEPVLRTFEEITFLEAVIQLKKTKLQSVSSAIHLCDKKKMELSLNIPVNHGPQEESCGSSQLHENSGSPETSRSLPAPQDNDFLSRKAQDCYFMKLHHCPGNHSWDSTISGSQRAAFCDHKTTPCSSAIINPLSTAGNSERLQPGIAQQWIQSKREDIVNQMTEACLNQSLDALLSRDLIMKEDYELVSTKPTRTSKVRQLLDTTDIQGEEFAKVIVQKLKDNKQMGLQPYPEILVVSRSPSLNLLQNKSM
# UniProt Q96RR4, whole entry: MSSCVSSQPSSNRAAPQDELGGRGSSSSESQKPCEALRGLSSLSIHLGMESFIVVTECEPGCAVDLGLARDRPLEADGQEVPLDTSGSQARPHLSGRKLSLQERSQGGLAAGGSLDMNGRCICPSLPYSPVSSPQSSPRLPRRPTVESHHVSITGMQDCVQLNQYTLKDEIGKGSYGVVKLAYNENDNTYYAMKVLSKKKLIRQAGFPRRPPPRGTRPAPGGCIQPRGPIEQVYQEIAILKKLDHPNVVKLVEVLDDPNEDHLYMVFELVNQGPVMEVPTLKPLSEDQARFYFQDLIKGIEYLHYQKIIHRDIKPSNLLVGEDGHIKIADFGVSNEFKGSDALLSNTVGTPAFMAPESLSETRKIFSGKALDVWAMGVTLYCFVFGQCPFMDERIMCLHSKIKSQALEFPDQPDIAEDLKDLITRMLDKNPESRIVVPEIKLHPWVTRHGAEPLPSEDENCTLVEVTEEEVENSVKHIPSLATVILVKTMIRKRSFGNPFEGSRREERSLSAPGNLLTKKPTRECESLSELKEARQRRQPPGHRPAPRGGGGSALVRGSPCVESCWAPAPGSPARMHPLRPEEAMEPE
# Columns and labels:
# Txk(h) = Txk(h) (Homo sapiens, UniProt P42681); test: biochemical
# Plk4(h) = Plk4(h) (Homo sapiens, UniProt O00444); test: biochemical
# NLK (h) = NLK (h) (Homo sapiens, UniProt Q9UBE8); test: biochemical
# [1] = tested on: Purinergic P2Y, Non-Selective; conditions: 10 µM
# LOK(h) = LOK(h) (Homo sapiens, UniProt O94804); test: biochemical
# MAPK2(h) = MAPK2(h) (Homo sapiens, UniProt P28482); test: biochemical
# Ataxin3L = Ataxin3L (Homo sapiens, UniProt Q9H3M9); test: biochemical; conditions: read-out: Activity (% Control)
# Adenosine A1 = Adenosine A1 (Homo sapiens, UniProt P30542); test: biochemical; conditions: read-out: % Inh.
# DDR1(h) = DDR1(h) (Homo sapiens, UniProt Q08345); test: biochemical
# PAK5(h) = PAK5(h) (Homo sapiens, UniProt Q9P286); test: biochemical
# PKBalpha(h) = PKBalpha(h) (Homo sapiens, UniProt P31749); test: biochemical
# GCK (h) = GCK (h) (Homo sapiens, UniProt Q12851); test: biochemical
# Carbonic Anhydrase II = Carbonic Anhydrase II (Homo sapiens, UniProt P00918); test: biochemical; conditions: read-out: % Inh.
# STK39(h) = STK39(h) (Homo sapiens, UniProt Q9UEW8); test: biochemical
# LTK(h) = LTK(h) (Homo sapiens, UniProt P29376); test: biochemical
# CK1gamma2(h) = CK1gamma2(h) (Homo sapiens, UniProt P78368); test: biochemical
# IRR(h) = IRR(h) (Homo sapiens, UniProt P14616); test: biochemical
# MDA-MB-231 = test: cells; conditions: Homo sapiens, MDA-MB-231, 72 h, read-out: antiproliferative effect
# MRCKalpha(h) = MRCKalpha(h) (Homo sapiens, UniProt Q5VT25); test: biochemical
# Jurkat = test: cells; conditions: Homo sapiens, 72 h, read-out: antiproliferative effect
# VRK2(h) = VRK2(h) (Homo sapiens, UniProt Q86Y07); test: biochemical
# CDK3/cyclinE(h) = CDK3/cyclinE(h) (Homo sapiens, UniProt Q00526); test: biochemical
# Adrenergic β2 = Adrenergic β2 (Homo sapiens, UniProt P07550); test: biochemical; conditions: read-out: % Inh.
# ChaK1(h) = ChaK1(h) (Homo sapiens, UniProt Q96QT4); test: biochemical
# CaMKIV(h) = CaMKIV(h) (Homo sapiens, UniProt Q16566); test: biochemical
# Plk1(h) = Plk1(h) (Homo sapiens, UniProt P53350); test: biochemical
# USP30 [2] = biological target: T1, USP30 (Homo sapiens, UniProt Q70CQ3); test: biochemical; conditions: read-out: Activity (% Control)
# STK33(h) = STK33(h) (Homo sapiens, UniProt Q9BYT3); test: biochemical
# PKCeta(h) = PKCeta(h) (Homo sapiens, UniProt P24723); test: biochemical
# JAK2(h) = JAK2(h) (Homo sapiens, UniProt O60674); test: biochemical
# NEK2(h) = NEK2(h) (Homo sapiens, UniProt P51955); test: biochemical
# GRK5(h) = GRK5(h) (Homo sapiens, UniProt P34947); test: biochemical
# ZIPK(h) = ZIPK(h) (Homo sapiens, UniProt O43293); test: biochemical
# USP30 [3] = biological target: T1, USP30; test: biochemical; conditions: read-out: Activity (% Control); remark: listed apart in the source
# ACTR2(h) = ACTR2(h) (Homo sapiens, UniProt P27037); test: biochemical
# IR(h) = IR(h) (Homo sapiens, UniProt P06213); test: biochemical
# MLK3(h) = MLK3(h) (Homo sapiens, UniProt Q16584); test: biochemical
# RIPK2(h) = RIPK2(h) (Homo sapiens, UniProt O43353); test: biochemical
# HMG-CoA Reductase = HMG-CoA Reductase (Homo sapiens, UniProt P04035); test: biochemical; conditions: read-out: % Inh.
# MARK1(h) = MARK1(h) (Homo sapiens, UniProt Q9P0L2); test: biochemical
# PAK1(h) = PAK1(h) (Homo sapiens, UniProt Q13153); test: biochemical
# CaMKK2(h) = CaMKK2(h) (Homo sapiens, UniProt Q96RR4); test: biochemical
structure (smiles),measurement,setting,value
"CC(C)C[C@H](NC(=O)C1(C(F)(F)F)CCCCC1)C(=O)Nc1nnc(Cc2ccc(C#N)cc2)s1 [Compound 22, CC(C)C[C@H](NC(=O)C1(CCCCC1)C(F)(F)F)C(=O)Nc2nnc(Cc3ccc(cc3)C#N)s2]",inhibition at 10 µM,Txk(h),-7.12%
same,inhibition at 10 µM,Plk4(h),-23.2%
same,inhibition at 10 µM,NLK (h),-1.46%
same,% Inh.,[1],22
same,inhibition at 10 µM,LOK(h),-13.1%
same,inhibition at 10 µM,MAPK2(h),4.81%
same,remaining activity at 1 µM,Ataxin3L,91%
same,remaining activity at 10 µM,Ataxin3L,106%
same,inhibition at 10 µM,Adenosine A1,-2%
same,inhibition at 10 µM,DDR1(h),-7.03%
same,inhibition at 10 µM,PAK5(h),12.8%
same,inhibition at 10 µM,PKBalpha(h),4.46%
same,inhibition at 10 µM,GCK (h),8.31%
same,inhibition at 10 µM,Carbonic Anhydrase II,1%
same,inhibition at 10 µM,STK39(h),-9.43%
same,inhibition at 10 µM,LTK(h),-4.59%
same,inhibition at 10 µM,CK1gamma2(h),5.69%
same,inhibition at 10 µM,IRR(h),3.88%
same,IC50,MDA-MB-231,> 30 µM
same,inhibition at 10 µM,MRCKalpha(h),8.27%
same,IC50,Jurkat,> 30 µM
same,inhibition at 10 µM,VRK2(h),-0.65%
same,inhibition at 10 µM,CDK3/cyclinE(h),-14.7%
same,inhibition at 10 µM,Adrenergic β2,6%
same,inhibition at 10 µM,ChaK1(h),-14.6%
same,inhibition at 10 µM,CaMKIV(h),-9.6%
same,inhibition at 10 µM,Plk1(h),5.71%
same,remaining activity at 1 µM,USP30 [2],98%
same,remaining activity at 10 µM,USP30 [2],103%
same,inhibition at 10 µM,STK33(h),2.39%
same,inhibition at 10 µM,PKCeta(h),23.7%
same,inhibition at 10 µM,JAK2(h),-2.9%
same,inhibition at 10 µM,NEK2(h),-2.19%
same,inhibition at 10 µM,GRK5(h),-1.71%
same,inhibition at 10 µM,ZIPK(h),1.95%
same,remaining activity at 10 µM,USP30 [3],74%
same,remaining activity at 50 µM,USP30 [3],65%
same,inhibition at 10 µM,ACTR2(h),6.16%
same,inhibition at 10 µM,IR(h),-7.1%
same,inhibition at 10 µM,MLK3(h),0%
same,inhibition at 10 µM,RIPK2(h),6.19%
same,inhibition at 10 µM,HMG-CoA Reductase,1%
same,inhibition at 10 µM,MARK1(h),8.84%
same,inhibition at 10 µM,PAK1(h),11.1%
same,inhibition at 10 µM,CaMKK2(h),5.63%
"CC(C)C[C@@H](NC(=O)C1(C(F)(F)F)CCCCC1)C(=O)Nc1nnc(Cc2ccc(C#N)cc2)s1 [Compound 21, N-[(1R)-1-[[5-[(4-Cyanophenyl)methyl]-1,3,4-thiadiazol-2-yl]carbamoyl]-3-methyl-butyl]-1-(trifluoromethyl)cyclohexanecarboxamide]",inhibition at 10 µM,Txk(h),-39.2%
same,inhibition at 10 µM,Plk4(h),-10.8%
same,inhibition at 10 µM,NLK (h),7.16%
same,% Inh.,[1],5
same,inhibition at 10 µM,LOK(h),-0.83%
same,inhibition at 10 µM,MAPK2(h),7.68%
same,remaining activity at 1 µM,Ataxin3L,109%
same,remaining activity at 10 µM,Ataxin3L,111%
same,inhibition at 10 µM,Adenosine A1,4%
same,inhibition at 10 µM,DDR1(h),-6.82%
same,inhibition at 10 µM,PAK5(h),8.53%
same,inhibition at 10 µM,PKBalpha(h),10.7%
same,inhibition at 10 µM,GCK (h),11%
same,inhibition at 10 µM,Carbonic Anhydrase II,3%
same,inhibition at 10 µM,STK39(h),-2.66%
same,inhibition at 10 µM,LTK(h),-1.54%
same,inhibition at 10 µM,CK1gamma2(h),9.63%
same,inhibition at 10 µM,IRR(h),-2.02%
same,IC50,MDA-MB-231,> 30 µM
same,inhibition at 10 µM,MRCKalpha(h),-0.05%
same,IC50,Jurkat,> 30 µM
same,inhibition at 10 µM,VRK2(h),6.47%
same,inhibition at 10 µM,CDK3/cyclinE(h),-8.85%
same,inhibition at 10 µM,Adrenergic β2,3%
same,inhibition at 10 µM,ChaK1(h),-12.9%
same,inhibition at 10 µM,CaMKIV(h),-9.78%
same,inhibition at 10 µM,Plk1(h),1.06%
same,remaining activity at 1 µM,USP30 [2],102%
same,remaining activity at 10 µM,USP30 [2],97%
same,inhibition at 10 µM,STK33(h),1.36%
same,inhibition at 10 µM,PKCeta(h),19.4%
same,inhibition at 10 µM,JAK2(h),-3.89%
same,inhibition at 10 µM,NEK2(h),-5.96%
same,inhibition at 10 µM,GRK5(h),-6.49%
same,inhibition at 10 µM,ZIPK(h),-0.39%
same,remaining activity at 10 µM,USP30 [3],69%
same,remaining activity at 50 µM,USP30 [3],65%
same,inhibition at 10 µM,ACTR2(h),6.68%
same,inhibition at 10 µM,IR(h),-5.67%
same,inhibition at 10 µM,MLK3(h),-2.48%
same,inhibition at 10 µM,RIPK2(h),0.2%
same,inhibition at 10 µM,HMG-CoA Reductase,16%
same,inhibition at 10 µM,MARK1(h),12.6%
same,inhibition at 10 µM,PAK1(h),-1.95%
same,inhibition at 10 µM,CaMKK2(h),3.81%

# Like-named read-outs stand apart in the source and are kept apart here.
